Measured values as given in PubChem BioAssay (NCI).
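GI50: concentration for 50% inhibition of growth. TGI marks complete inhibition of growth.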

Assays:
Experiment in all cases: NCI tumour cell line growth inhibition, 384-well format
SF-539 CNS = test system: SF-539 CNS
NCI-H522 lung = test system: NCI-H522 lung
TK-10 renal = test system: TK-10 renal
HCT-116 colon = test system: HCT-116 colon
A549 NSCLC = test system: A549 NSCLC
RXF 393 renal = test system: RXF 393 renal
HL-60(TB) leukemia = test system: HL-60(TB) leukemia
MDA-MB-468 breast = test system: MDA-MB-468 breast
PC-3 prostate = test system: PC-3 prostate
U251 glioblastoma = test system: U251 glioblastoma
CAKI-1 renal = test system: CAKI-1 renal
CCRF-CEM leukemia = test system: CCRF-CEM leukemia
BT-549 breast = test system: BT-549 breast
T-47D breast = test system: T-47D breast
ACHN renal = test system: ACHN renal
SNB-75 CNS = test system: SNB-75 CNS
HCT-15 colon = test system: HCT-15 colon
KM12 colon = test system: KM12 colon
MALME-3M melanoma = test system: MALME-3M melanoma
SW-620 colon = test system: SW-620 colon
SF-268 CNS = test system: SF-268 CNS
RPMI-8226 leukemia = test system: RPMI-8226 leukemia
OVCAR-3 ovarian = test system: OVCAR-3 ovarian
DU-145 prostate = test system: DU-145 prostate
SNB-19 CNS = test system: SNB-19 CNS
MCF7 breast = test system: MCF7 breast
NCI-H226 lung = test system: NCI-H226 lung
MOLT-4 leukemia = test system: MOLT-4 leukemia
LOX IMVI melanoma = test system: LOX IMVI melanoma
UACC-62 melanoma = test system: UACC-62 melanoma
NCI-H322M lung = test system: NCI-H322M lung
M14 melanoma = test system: M14 melanoma
K-562 leukemia = test system: K-562 leukemia
786-0 renal = test system: 786-0 renal
SK-MEL-28 melanoma = test system: SK-MEL-28 melanoma
A498 renal = test system: A498 renal

With `CN(CCCl)CCCl` the GI50 (SF-539 CNS) was 1.83 µM, the TGI (SF-539 CNS) was 5.57 µM and the GI50 (NCI-H522 lung) was 1.25 µM. It also gave a TGI (NCI-H522 lung) of 2.51 µM, a GI50 (TK-10 renal) of 3.56 µM and a TGI (TK-10 renal) of 31.4 µM. The GI50 (HCT-116 colon) was 1.07 µM, the GI50 (A549 NSCLC) was 4.33 µM and the TGI (A549 NSCLC) was 22.4 µM. For the same molecule, the GI50 (RXF 393 renal) was 1.84 µM, the TGI (RXF 393 renal) was 4.68 µM and the GI50 (HL-60(TB) leukemia) was 0.192 µM. The TGI (HL-60(TB) leukemia) was 0.37 µM, the GI50 (MDA-MB-468 breast) was 0.521 µM and the TGI (MDA-MB-468 breast) was 1.71 µM. The GI50 (PC-3 prostate) was 6.59 µM, the TGI (PC-3 prostate) was 42.4 µM and the GI50 (U251 glioblastoma) was 2.24 µM. The GI50 (CAKI-1 renal) was 1.07 µM, the TGI (CAKI-1 renal) was 16.3 µM and the GI50 (CCRF-CEM leukemia) was 0.275 µM. It also gave a TGI (CCRF-CEM leukemia) of 0.626 µM, a GI50 (BT-549 breast) of 2.08 µM and a TGI (BT-549 breast) of 15.6 µM. It also gave a GI50 (T-47D breast) of 2.28 µM, a GI50 (ACHN renal) of 0.427 µM and a TGI (ACHN renal) of 2.24 µM. For the same molecule, the GI50 (SNB-75 CNS) was 9.66 µM, the TGI (SNB-75 CNS) was 26 µM and the GI50 (HCT-15 colon) was 1.22 µM. For the same molecule, the GI50 (KM12 colon) was 3.4 µM, the TGI (KM12 colon) was 54.9 µM and the GI50 (MALME-3M melanoma) was 1.68 µM. For the same molecule, the TGI (MALME-3M melanoma) was 4.13 µM, the GI50 (SW-620 colon) was 1.13 µM and the GI50 (SF-268 CNS) was 2.51 µM. The TGI (SF-268 CNS) was 24.8 µM, the GI50 (RPMI-8226 leukemia) was 0.697 µM and the TGI (RPMI-8226 leukemia) was 2.36 µM. It also gave a GI50 (OVCAR-3 ovarian) of 2.45 µM, a TGI (OVCAR-3 ovarian) of 25.5 µM and a GI50 (DU-145 prostate) of 1.84 µM. It also gave a TGI (DU-145 prostate) of 4.48 µM, a GI50 (SNB-19 CNS) of 9.22 µM and a GI50 (MCF7 breast) of 4.33 µM. It also gave a TGI (MCF7 breast) of 29.2 µM, a GI50 (NCI-H226 lung) of 10 µM and a TGI (NCI-H226 lung) of 48.1 µM. For the same molecule, the GI50 (MOLT-4 leukemia) was 0.17 µM, the TGI (MOLT-4 leukemia) was 0.312 µM and the GI50 (LOX IMVI melanoma) was 6.73 µM. The TGI (LOX IMVI melanoma) was 20.7 µM, the GI50 (UACC-62 melanoma) was 2.17 µM and the TGI (UACC-62 melanoma) was 13.5 µM. For the same molecule, the GI50 (NCI-H322M lung) was 21.4 µM, the TGI (NCI-H322M lung) was 64.6 µM and the GI50 (M14 melanoma) was 3.89 µM. For the same molecule, the TGI (M14 melanoma) was 15.7 µM, the GI50 (K-562 leukemia) was 5.76 µM and the TGI (K-562 leukemia) was 58 µM. It also gave a GI50 ([…]-0 renal) of 3.15 µM, a TGI (786-0 renal) of 33.6 µM and a GI50 (SK-MEL-28 melanoma) of 10.2 µM. The TGI (SK-MEL-28 melanoma) was 22.5 µM, the GI50 (A498 renal) was 13.6 µM and the TGI (A498 renal) was 57.5 µM.
